Laboratory results published in publication PMC6688529.

Experiments:
[1] = molecular target: cytochrome c2-His6 (Rba. sphaeroides strain 2.4.1) (UniProt P0C0X8); experiment: single-molecule dynamic force spectroscopy (AFM); as a1 (retraction velocity 500 nm s^-1), but after about 10 min with 3 µM free pre-reduced cytochrome c2-His6 in the AFM liquid cell
[2] = molecular target: cytochrome c2-His6 (Rba. sphaeroides strain 2.4.1) (UniProt P0C0X8); experiment: single-molecule dynamic force spectroscopy (AFM); RC–LH1–PufX on the AFM tip via His12/Ni-NTA and a PEG12 linker, kept photo-oxidised by white light; pre-reduced cytochrome c2-His6 held on a Ni-NTA SiOx substrate via His6; 10 mM HEPES pH 7.4, 45 mM KCl, room temperature; retract velocity 200–3000 nm s^-1; the paper calls the values apparent
[3] = molecular target: cytochrome c2-His6 (Rba. sphaeroides strain 2.4.1) (UniProt P0C0X8); experiment: PeakForce QNM single-molecule force spectroscopy (AFM); RC–LH1–PufX on the AFM tip, illuminated; pre-reduced cytochrome c2-His6 (and His6-CFP in patterned lines) held on a Ni-NTA SiOx substrate; 10 mM HEPES pH 7.4, 45 mM KCl, room temperature; modulation frequencies 0.5, 1 and 2 kHz

monomeric RC–His12–LH1–PufX core complex (reaction centre light-harvesting 1-PufX) (from UniProt P0C0Y7 1-260; P0C0Y8 2-282; P0C0Y9 2-308; P0C0X9 1-58; P0C0Y1 1-49; P13402 1-82)
binding probability with 3 µM free cytochrome c2-His6 [1]: 4%
peak of the unbinding force histogram with 3 µM free cytochrome c2-His6 [1]: 280 pN
binding probability (unbinding events per force–distance curves, 500 nm s^-1) [2]: 20.3%
rupture force of a typical single curve (retraction 500 nm s^-1) [2]: 185 pN
rupture force of a typical single curve (retraction 1500 nm s^-1) [2]: 272 pN
rupture force of a typical single curve (retraction 3000 nm s^-1) [2]: 375 pN
binding probability [3]: 33%
rupture force of a single unbinding event [3]: 540 pN
